Data taken from patent US20210002231A1 (Centre National de la Recherche Scientifique, priority 2018, published 2021).

Chains of the proteins cited; added tags and fusions are not shown. Lines headed by an entry give the natural chain unless they say otherwise; changes in a name come on top.
UniProt Q9GZQ6: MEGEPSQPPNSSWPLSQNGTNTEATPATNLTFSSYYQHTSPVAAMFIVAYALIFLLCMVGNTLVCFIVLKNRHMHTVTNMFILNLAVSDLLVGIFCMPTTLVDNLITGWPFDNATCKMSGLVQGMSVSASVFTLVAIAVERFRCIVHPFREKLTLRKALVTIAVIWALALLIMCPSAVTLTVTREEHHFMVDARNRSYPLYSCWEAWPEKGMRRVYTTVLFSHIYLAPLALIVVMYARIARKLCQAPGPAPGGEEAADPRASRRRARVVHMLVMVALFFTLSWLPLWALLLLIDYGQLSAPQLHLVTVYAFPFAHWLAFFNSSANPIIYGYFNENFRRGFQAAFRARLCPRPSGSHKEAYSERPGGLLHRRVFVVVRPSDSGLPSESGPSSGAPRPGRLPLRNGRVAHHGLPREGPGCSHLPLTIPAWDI

Biological target: human NPFF1R (Homo sapiens, UniProt Q9GZQ6)
Assay: Radioligand competition binding with [125I]-1-DMe-NPFF
Parameters: expressed in transfected cells; HEK293-Glo20F cells (cAMP)

Q: With `Cc1cc(O)cc(C)c1C[C@H](N)C(=O)N[C@H](CCCNC(=N)N)C(=O)N[C@H]1Cc2ccccc2CN(CCC(=O)N[C@@H](CCCN2CCCCC2)C(=O)N[C@@H](Cc2ccccc2)C(N)=O)C1=O` [KGFF08, H-Dmt-D-Arg-Aba-β-Ala-Apa-Phe-NH2] as the compound, how does the Ki read?
A: 136 ± 26 nM
